Assay results published in patent US8383666B2, “Pyrrole derivatives, preparation of same and therapeutic application thereof” (Sanofi, priority 2008, dated 2013).

Protein sequences, listed by entry. Tags and fused reporters are not part of them.
UniProt P47746, whole entry: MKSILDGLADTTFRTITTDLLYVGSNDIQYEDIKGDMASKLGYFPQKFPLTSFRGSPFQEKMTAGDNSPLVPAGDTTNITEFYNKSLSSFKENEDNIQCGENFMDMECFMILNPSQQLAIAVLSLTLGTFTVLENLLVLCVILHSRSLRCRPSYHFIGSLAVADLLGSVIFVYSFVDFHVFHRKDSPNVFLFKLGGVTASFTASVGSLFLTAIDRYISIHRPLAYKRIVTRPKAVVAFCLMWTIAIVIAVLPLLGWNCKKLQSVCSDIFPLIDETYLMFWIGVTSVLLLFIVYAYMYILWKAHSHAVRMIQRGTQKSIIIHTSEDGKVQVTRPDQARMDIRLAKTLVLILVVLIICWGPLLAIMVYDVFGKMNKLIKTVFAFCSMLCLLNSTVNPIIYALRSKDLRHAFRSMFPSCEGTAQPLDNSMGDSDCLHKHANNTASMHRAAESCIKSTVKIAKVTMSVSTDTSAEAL

Legend:
[1] = target: T1, CB1 receptors present at the periphery (Mus musculus, UniProt P47746); experiment: blocking of the inhibitory effect of CP55940 on gastrointestinal transit; type: in vivo; settings: per os at 10 mg/kg, mice
T1 construct: from tissue; host or cells: living mouse, peripheral (gastrointestinal) CB1 receptors

[2] = target: T2, CB1 receptors present in the brain (Mus musculus, UniProt P47746); experiment: Measurement (2): ex vivo binding of [3H]-CP55940 in the brain after intravenous administration; set-up: the CB1 receptors present in the brain in mice; from tissue; host or cells: mouse brain (after intravenous dosing); settings: iv at 10 mg/kg, mice
From the text: (§1) Preferably, this percentage is less than 40%, and more preferably less than 30%.

[3] = target: T2, CB1 receptors present in the brain; experiment: Measurement (3): blocking of the hypothermic effect induced by CP55940; type: in vivo; set-up: [CB1 receptors present; from tissue; host or cells: living animal, brain CB1 receptors; settings: iv at 10 mg/kg
From the text: as §1

Cc1c(C(=O)NN2CCCCC2)nn(-c2ccc(Cl)cc2Cl)c1-c1ccc(Cl)cc1 [rimonabant, reference compound]
100%: % reversion of the effect of CP55940 on GI transit [1] | % inhibition of [3H]-CP55940 binding at the level of the brain [2] | % reversion of the hypothermic effect of CP55940 [3]
